Values quoted from earlier work, collected in patent US5591602A (priority 1993, dated 1997).

Tested on: κ opioid receptor site
Settings: Nock et al., 1988; cited from earlier work

CN(C(=O)Cc1ccccc1)C1CCC2(CCCO2)CC1N1CCCC1 (single isomer, unassigned)
selective labelling of κ opioid receptor site (in words): selectively label
